{"source": "patent US20030149011A1", "about": "“Methods and reagents for extracorporeal immunomodulatory therapy” (published 2003)", "key": {"[1]": {"test_system": "murine splenocytes", "assay": "Proliferative response of treated murine splenocytes to ConA or allogeneic cells, and as stimulator cells", "settings": "0.1% for 1 hour in vitro"}, "[2]": {"test_system": "PBMCs in whole human blood", "assay": "Enumeration and differential analysis of PBMCs in ethyleneimine oligomer-treated whole blood"}, "[3]": {"test_system": "PBMCs", "assay": "Annexin V / propidium iodide staining for apoptosis"}, "[4]": {"test_system": "murine spleen cells", "assay": "Phorbol ester activation of treated murine spleen cells (CD69 expression)", "settings": "0.1% for 1 hour in vitro"}, "[5]": {"test_system": "B6D2F1 hybrid mice", "assay": "Murine GVHD model, chronic GVHD: DBA/2 parental splenocytes injected into B6D2F1 hybrid recipients"}, "[6]": {"test_system": "PBMCs", "assay": "Mixed lymphocyte culture (MLC), treated PBMCs as responder or stimulator cells"}, "[7]": {"test_system": "PBMCs", "assay": "TUNEL staining assay (fragmented DNA)", "settings": "after 20 hours incubation, relative to mitomycin C treated cells"}, "[8]": {"test_system": "B6D2F1 hybrid mice", "assay": "Murine TAGVHD model, acute GVHD: C57BL/6 parental splenocytes injected into B6D2F1 hybrid recipients"}, "[9]": {"test_system": "PBMCs", "assay": "PHA blastogenesis (PHA-induced proliferation, [3H]-thymidine incorporation)"}, "[10]": {"test_system": "DBA/2 recipients", "assay": "IgG alloantibody response to donor antigens, C57BL/6 donor cells and DBA/2 recipients", "settings": "treatment of donor cells"}, "[11]": {"settings": "whole human blood incubated 6 hours with 0.1%"}}, "data": [{"compound": "C1CN1", "values": [{"measurement": "Proliferative response of splenocytes to mitogen ConA stimulation or allogeneic stimulator cells", "setting": "[1]", "result": "abrogates the proliferative response"}, {"measurement": "Stimulation of proliferation of allogeneic responder cells by treated cells", "setting": "[1]", "result": "do not stimulate proliferation"}, {"measurement": "Effect on cell count", "setting": "[2]; highest concentration tested (about 0.1%), longest time tested (6 hours)", "result": "did not affect cell count"}, {"measurement": "Bands", "setting": "[2]; [11]", "result": 2, "unit": "%"}, {"measurement": "Basophiles", "setting": "[2]; [11]", "result": 0, "unit": "%"}, {"measurement": "Eosinophils", "setting": "[2]; [11]", "result": 2, "unit": "%"}, {"measurement": "Lymphocytes", "setting": "[2]; [11]", "result": 20, "unit": "%"}, {"measurement": "Monocytes", "setting": "[2]; [11]", "result": 4, "unit": "%"}, {"measurement": "PMN", "setting": "[2]; [11]", "result": 72, "unit": "%"}, {"measurement": "PBMCs", "setting": "[2]; whole human blood incubated 6 hours with 0.1%, room temperature", "result": 7.6, "unit": "thousands/mm^3"}, {"measurement": "Apoptotic cells (annexin V / propidium iodide staining)", "setting": "[3]; 0.1%, 20 hours in vitro culture, relative to mitomycin C treated cells", "result": "much higher numbers of apoptotic cells"}, {"measurement": "Time to apoptosis following treatment", "setting": "[3]; PBMCs in treated blood", "result": "≤ 24", "unit": "h"}, {"measurement": "Phorbol ester activation and upregulation of CD69 expression", "setting": "[4]", "result": "failure of phorbol ester to activate cells and induce the upregulation of CD69 expression"}, {"measurement": "Effect on splenomegaly", "setting": "[5]; DBA/2 donor cells", "result": "inhibition of splenomegaly"}, {"measurement": "Effect on generalized immunoglobulin production", "setting": "[5]; DBA/2 donor cells, compared to untreated controls", "result": "decrease in generalized immunoglobulin production"}, {"measurement": "Immunoglobulin Production (treated/control)", "setting": "[5]; donor DBA/2 cells treated", "result": "1.04 ± .034"}, {"measurement": "Spleen mass", "setting": "[5]; donor DBA/2 cells treated", "result": "0.064 ± 0.01", "unit": "mg"}, {"measurement": "Proliferation", "setting": "[6]; responder cells treated (0.1%, three hours), allogeneic Mitomycin C-treated stimulator cells", "result": "527 ± 100"}, {"measurement": "Proliferation", "setting": "[6]; responder cells treated (0.1%, three hours), syngeneic Mitomycin C-treated stimulator cells", "result": "531 ± 145"}, {"measurement": "Response of treated PBMC to allogeneic stimulator cells", "setting": "[6]; treated cells as responders", "result": "totally abrogate the response"}, {"measurement": "Ability of treated cells to stimulate responder cells in the MLC", "setting": "[6]; treated cells as stimulators", "result": "unable to stimulate the responder cells to proliferate"}, {"measurement": "Proliferation", "setting": "[6]; untreated responder cells, allogeneic stimulator cells treated with the substance", "result": "504 ± 214"}, {"measurement": "Proliferation", "setting": "[6]; untreated responder cells, syngeneic stimulator cells treated with the substance", "result": "443 ± 23"}, {"measurement": "TUNEL staining", "setting": "[7]", "result": "greatly increased TUNEL staining"}, {"measurement": "Effect on CTL activity", "setting": "[8]; C57BL/6 donor cells", "result": "inhibition of CTL activity"}, {"measurement": "Effect on splenomegaly", "setting": "[8]; C57BL/6 donor cells", "result": "inhibition of splenomegaly"}, {"measurement": "Immunoglobulin Production (treated/control)", "setting": "[8]; donor C57BL/6 cells treated", "result": "0.83 ± 0.37"}, {"measurement": "Spleen mass", "setting": "[8]; donor C57BL/6 cells treated", "result": "0.065 ± 0.013", "unit": "mg"}, {"measurement": "Inhibition of PBMC proliferative response to PHA", "setting": "[9]; about 0.1%, one hour incubation", "result": "sufficient to completely inhibit the proliferative response"}, {"measurement": "PHA proliferation", "setting": "[9]; blood incubated 6 hours with 0.1%, thymidine incorporation day 3", "result": "242 ± 48", "unit": "cpm"}, {"measurement": "Concentration sufficient to achieve complete inhibition of PHA-induced proliferation", "setting": "[9]; dose curves using smaller increments", "result": "about 0.01%"}, {"measurement": "Effect on levels of IgG alloantibodies", "setting": "[10]", "result": "significantly lower levels of IgG alloantibodies"}]}]}
